Target: human Factor XIIa (Homo sapiens (Human), UniProt P00748)
Test: Factor XIIa Assay
Assay type: biochemical
Conditions: read-out: FXIIa IC50; purified human Factor XIIa 500 pM; substrate n-Acetyl-Lys-Pro-Arg-AFC 100 μM; pH 7.4

Chains of the proteins cited; added tags and fusions are not shown. Residues count along the entry.
UniProt P00748, 373-615 limits assumed: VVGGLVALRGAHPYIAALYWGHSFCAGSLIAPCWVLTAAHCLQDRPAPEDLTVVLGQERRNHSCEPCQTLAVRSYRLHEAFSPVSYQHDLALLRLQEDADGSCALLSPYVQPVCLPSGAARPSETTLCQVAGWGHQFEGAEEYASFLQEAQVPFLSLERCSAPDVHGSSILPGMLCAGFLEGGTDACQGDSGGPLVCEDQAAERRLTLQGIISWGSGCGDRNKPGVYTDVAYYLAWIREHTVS

Compound	IC50 [nM]
CS(=O)(=O)NCCCC[C@@H](NC1CCC2(CC1)CCN(Cc1ccccc1)C2)C(=O)N1CCN(C(=O)Oc2cccc(CN)c2)C[C@H]1C(=O)NCc1cccs1 (some centres unmarked)	16
CN(C)CCCC[C@H](C(=O)N1CCN(C(=O)Oc2ccccc2Cl)C[C@H]1C(=O)NCc1cccs1)N(C)C1CCC2(CC1)CCN(Cc1ccccc1)C2 (some centres unmarked)	1.1
